Where two headings read alike, the source gives them in different places.
Legend:
[1] = in mice; cited from earlier work
[2] = Co-formulation study of ectodomain-based traps with incretin mimetics (monomer content by SEC / RP-HPLC, integrity, stability); format: physicochemical
[3] = Pharmacokinetic profiles in CD-1 mice
GIP receptor (GIPR) = target: T1, GIP receptor (GIPR) (Homo sapiens, UniProt P48546); assay: GIP receptor activation in CHO-K1 cells stably overexpressing GIPR; format: cell-based; conditions: read-out: CBA Potency GIPR
T1 construct: host or cells: CHO-K1
T1 sequence (P48546 22-466): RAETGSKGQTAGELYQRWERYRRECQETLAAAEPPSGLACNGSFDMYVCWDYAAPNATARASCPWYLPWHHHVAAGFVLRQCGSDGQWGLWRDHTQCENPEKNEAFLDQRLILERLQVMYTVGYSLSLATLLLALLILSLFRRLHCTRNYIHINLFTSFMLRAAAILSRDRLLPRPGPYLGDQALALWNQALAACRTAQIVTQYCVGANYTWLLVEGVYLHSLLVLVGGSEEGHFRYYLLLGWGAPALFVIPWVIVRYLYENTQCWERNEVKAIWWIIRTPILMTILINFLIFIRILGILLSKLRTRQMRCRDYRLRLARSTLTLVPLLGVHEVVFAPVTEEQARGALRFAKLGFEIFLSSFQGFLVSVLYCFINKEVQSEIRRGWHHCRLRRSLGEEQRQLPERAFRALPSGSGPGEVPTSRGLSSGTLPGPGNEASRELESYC
Description: These reporter cells were purchased from Genscript (Piscataway, NJ, cat #M00451) and were maintained following the manufacturer's instructions. […] Once the cells reached 70-80% confluence, they were detached using trypsin. For all assays, cells were seeded in clear-bottom, opaque 96-well plates at a density of 10,000 cells per well in growth medium. Cells were left to attach for 10 minutes at room temperature prior to being transferred to a 37° C. incubator (5% CO2) overnight. The next day, cells were treated with incretin mimetics to assess intracellular cAMP accumulation, using the cAMP-GloTM Max Assay from Promega (Madison, WI, cat #V1682) following the manufacturer's instructions. Briefly, cells were starved in […] modified) medium (no additional supplements) for 2 hours at 37° C. incubator (5% CO2). […] Medium was removed from the culture plates, and cells were treated with the appropriate mixes of incretin mimetics. Treatment duration was for 30 min at 37° C. (5% CO2). All treatments were performed in technical duplicates and at least two independent experiments were conducted for each incretin mimetic. Cells were lyzed for 20 minutes at room temperature (150 rpm) using the kit's buffer. Following the kit's instructions, luciferin was then added for 10 minutes at room temperature (in the dark), following which luminescence was assessed. The data were plotted in GraphPad Prism, which was used to calculate IC50 values as a non-linear regression. […] These reporter cells were purchased from Genscript (Piscataway, NJ, cat #M00486). The same methodology described above was applied for these cells.

[4] = D 0, 20 mM NaPO4, 100 mM glycine, 75 mM histidine pH 7.5
[5] = D 14, 2-8 degrees, 20 mM NaPO4, 100 mM glycine, 75 mM histidine pH 7.5
[6] = D 14, Room temperature, 20 mM NaPO4, 100 mM glycine, 75 mM histidine pH 7.5
[7] = D 28, 2-8 degrees, 20 mM NaPO4, 100 mM glycine, 75 mM histidine pH 7.5
[8] = D 28, Room temperature, 20 mM NaPO4, 100 mM glycine, 75 mM histidine pH 7.5
[9] = D 56, 2-8 degrees, 20 mM NaPO4, 100 mM glycine, 75 mM histidine pH 7.5
[10] = D 56, Room temperature, 20 mM NaPO4, 100 mM glycine, 75 mM histidine pH 7.5

## semaglutide
[1]
  half-life: ~ 7 h
[2]; D 0
  Monomer content semaglutide: 99.8%
[2]; [4]
  Monomer Content (%) semaglutide: 100%
  Monomer content (semaglutide, %) Reverse phase: 99.8%
  Monomer content (semaglutide, %) SEC: 100%
[2]; D 0, semaglutide formulations, 20 mM NaPO4, glycine, sucrose, histidine pH 7.5
  Monomer Content (%) semaglutide: 100%
[2]; D 7, 2-8° C., semaglutide formulations, 20 mM NaPO4, glycine, sucrose, histidine pH 7.5
  Monomer Content (%) semaglutide: 100%
[2]; D 7, RT, semaglutide formulations, 20 mM NaPO4, glycine, sucrose, histidine pH 7.5
  Monomer Content (%) semaglutide: 100%
[2]; D 7 after storage at 2-8° C.
  Monomer content semaglutide: 99.9%
[2]; D 7 after storage at room temperature
  Monomer content semaglutide: 99.9%
[2]; [5]
  Monomer content (semaglutide, %) Reverse phase: 99.8%
  Monomer content (semaglutide, %) SEC: 100%
[2]; D 14, 2-8° C., semaglutide formulations, 20 mM NaPO4, glycine, sucrose, histidine pH 7.5
  Monomer Content (%) semaglutide: 100%
[2]; D 14, RT, semaglutide formulations, 20 mM NaPO4, glycine, sucrose, histidine pH 7.5
  Monomer Content (%) semaglutide: 100%
[2]; [6]
  Monomer content (semaglutide, %) Reverse phase: 99.6%
  Monomer content (semaglutide, %) SEC: 100%
[2]; [7]
  Monomer content (semaglutide, %) Reverse phase: 99.8%
  Monomer content (semaglutide, %) SEC: 100%
[2]; D 28, 2-8° C., semaglutide formulations, 20 mM NaPO4, glycine, sucrose, histidine pH 7.5
  Monomer Content (%) semaglutide: 99.7%
[2]; D 28, RT, semaglutide formulations, 20 mM NaPO4, glycine, sucrose, histidine pH 7.5
  Monomer Content (%) semaglutide: 96.5%
[2]; [8]
  Monomer content (semaglutide, %) Reverse phase: 99.2%
  Monomer content (semaglutide, %) SEC: 100%
[2]; D 28, storage at 2-8° C., 10 mM NaPO4, 100 mM glycine, 75 mM sucrose pH 7.5
  Monomer content semaglutide: 100%
[2]; D 28, storage at room temperature, 10 mM NaPO4, 100 mM glycine, 75 mM sucrose pH 7.5
  Monomer content semaglutide: 100%
[2]; [9]
  Monomer content (semaglutide, %) Reverse phase: 99.8%
  Monomer content (semaglutide, %) SEC: 100%
[2]; D 56, 2-8° C., 20 mM NaPO4, 100 mM Glycine, 75 mM Histidine pH 7.5
  Monomer Content (%) semaglutide: 100%
[2]; D 56, 2-8° C., semaglutide formulations, 20 mM NaPO4, glycine, sucrose, histidine pH 7.5
  Monomer Content (%) semaglutide: 100%
[2]; D 56, RT, 20 mM NaPO4, 100 mM Glycine, 75 mM Histidine pH 7.5
  Monomer Content (%) semaglutide: 95.3%
[2]; D 56, RT, semaglutide formulations, 20 mM NaPO4, glycine, sucrose, histidine pH 7.5
  Monomer Content (%) semaglutide: 98.3%
[2]; [10]
  Monomer content (semaglutide, %) Reverse phase: 98.6%
  Monomer content (semaglutide, %) SEC: 100%
[3]; 2 mg/kg s.c.
  detectable in circulation until: 72 h
[3]; 2 mg/kg s.c., alone or in combination with P1229
  [C]max of semaglutide: ~ 2,000 nmol/L
[3]; single s.c. injection, 7 days
  PK profile alone versus in the co-formulation: comparable

## tirzepatide
[2]; D 0, same buffer (pH 7.5)
  Monomer Content (%) tirzepatide: 100%
[2]; D 7, 2-8° C.
  Monomer Content (%) tirzepatide: 100%
[2]; D 7, RT
  Monomer Content (%) tirzepatide: 100%
[2]; D 14, 2-8° C.
  Monomer Content (%) tirzepatide: 100%
[2]; D 14, RT
  Monomer Content (%) tirzepatide: 100%
[2]; D 28, 2-8° C.
  Monomer Content (%) tirzepatide: 100%
[2]; D 28, RT
  Monomer Content (%) tirzepatide: 100%
[2]; D 56, 2-8° C.
  Monomer Content (%) tirzepatide: 99.9%
[2]; D 56, RT
  Monomer Content (%) tirzepatide: 99.9%
GIP receptor (GIPR); D 7, 2-8° C.
  EC50: 1.1 pM
GIP receptor (GIPR); D 7, RT
  EC50: 1.2 pM
GIP receptor (GIPR); D 28, 2-8° C.
  EC50: 1.6 pM
GIP receptor (GIPR); D 28, RT
  EC50: 1.4 pM
GIP receptor (GIPR); D 56, 2-8° C.
  EC50: 1.9 pM
GIP receptor (GIPR); D 56, RT
  EC50: 2 pM

— patent publication US20260193317A1, “COMBINATION THERAPY WITH ACTRIIB RECEPTOR VARIANTS AND GLP-1 AGONISTS” (35PHARMA Inc., priority 2023, published 2026)
